Experimental data published in patent publication US20040105778A1, “Gamma irradiation of solid nanoparticulate active agents” (Elan Pharma International Limited, priority 2002, published 2004).

Assay: Gamma irradiation dosing studies, naproxen assay and degradants
Assay type: physicochemical
Protocol: Without being bound by theory, it is believed that the source of the degradation product is from the naproxen active pharmaceutical ingredient (API). Gamma irradiation dosing studies of naproxen API were conducted with doses of 0, 5, 10, 15, 25, 30, 40, and 50 kGy. A degradation product was detected in the API at the same Relative Retention Time (RRT) as the degradant in the GIL samples. The degradant in the API was present in all samples at all radiation doses tested. There was a direct relationship between the gamma dose and quantity of the degradation product.
Without being bound by theory, it is believed that the source of the degradation product is from the active naproxen pharmaceutical ingredient (API). Gamma irradiation dosing studies of naproxen API were conducted with doses of 0, 5, 10, 15, 25, 30, 40, and 50 kGy. A degradation product was detected in the naproxen API at the same Relative Retention Time (RRT) as the degradant in the GIL samples. The degradant in the naproxen API was present in all samples at all radiation doses tested. There was a direct relationship between the gamma dose and quantity of the degradation product. Refer to Example 2, Table 7 for the results of this testing.

With `COc1ccc2cc([C@H](C)C(=O)O)ccc2c1` [Naproxen (API), naproxen] the “Naproxen Assay Relative to Control” value (gamma dose 15 kGy) was 101.38, the “Naproxen Assay Relative to Control” value (gamma dose 25 kGy) was 101.02 and the “Naproxen Assay Relative to Control” value (gamma dose 30 kGy) was 101.41.
